Measurements reported in paper PMC7281298, “Exploring Kinase Inhibition Properties of 9H-pyrimido[5,4-b]- and [4,5-b]indol-4-amine Derivatives” (Pharmaceuticals, 2020).

By UniProt entry, the sequences of proteins in these tests, tags left out.
UniProt Q00535, whole entry, species assumed: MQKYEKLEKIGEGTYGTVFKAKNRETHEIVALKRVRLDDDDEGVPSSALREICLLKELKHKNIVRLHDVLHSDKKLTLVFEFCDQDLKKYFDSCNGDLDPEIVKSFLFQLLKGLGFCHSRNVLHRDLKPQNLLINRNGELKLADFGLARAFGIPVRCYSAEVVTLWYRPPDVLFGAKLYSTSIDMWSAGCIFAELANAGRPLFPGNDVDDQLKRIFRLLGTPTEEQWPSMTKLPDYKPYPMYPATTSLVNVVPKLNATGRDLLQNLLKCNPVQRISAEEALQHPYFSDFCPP

Molecular target: CDK5/p25 (Homo sapiens, UniProt Q00535)
Assay: Kinase inhibition assay, CDK5/p25
Type: biochemical
Method: The inhibitory potency of the synthesized pyrimido[4,5-b]indol-4-amines and pyrimido[5,4-b]indol-4-amines towards CDK5/p25, CK1δ/ε, DYRK1A, and GSK-3α/β was investigated according preceding procedures.
Buffers, kinase preparations, and assays were performed as described in ref. [12, 13, 14] according methods initially published in previous works.

SMILES: COc1ccc2c(c1)[nH]c1c(C)nccc12 [Compound 11a, harmine, reference compound]
- IC50: > 10 µM
